Experimental findings from publication PMC9287160 are described below.

The test deals with biotinylated iC3b (UniProt P01024). Briefly: SPR; biotinylated iC3b on a streptavidin chip (Biacore T200); αMβ2 HP 1.25-100 nM injected with or without a 1.5-fold molar excess of hCD11bNb1; 20 mM Hepes pH 7.5, 150 mM NaCl, 5 mM MgCl2, 1 mM CaCl2. On the technique in general: Surface plasmon resonance follows binding to a sensor surface in real time, without labels.

In general, Kd refers to the free concentration of one partner at which half of the binding sites on the other are occupied at equilibrium, for simple one-to-one binding. “human integrin αMβ2 headpiece fragment (from UniProt P11215 17-1152; P05107 23-482) (complex)” gave a Kd of 0.03 µM.
